Compound activity as filed in PubChem BioAssay.
Only some compounds are listed: those with a hit (about 2.2% of all), similar ones and a draw of the others.
Yeast UUG start-1 = alters start codon recognition fidelity in yeast; S. cerevisiae UUG-firefly luciferase reporter, luminescence/redox ratio; activity score, % at 18.7 µM; actives 0.13% (n = 350,000);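 active means replicate mean at a twofold rise or more, about +100% in these data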;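 further: firefly luciferase made from a UUG start codon reports start codon fidelity; reporter light over untreated wells divided by growth signal over untreated wells; some hits fall short of that in this replicate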
S100A4 MyoIIA = S100A4-myosin IIA interaction inhibition | P26447 | S100A4/TAMRA-MyoIIA peptide fluorescence polarization | inhibition, % at 10.7 µM | 0.14% of 360,000 active;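 active = mean inhibition of at least 70% across replicates, with every replicate also reaching that level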
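Compound dosing: one dose per compound; test system: human S100A4 monomer with TAMRA-labelled myosin IIA peptide; probe or stimulus: TAMRA-labelled myosin IIA heavy-chain peptide probe, 5 nM; medium: HEPES buffer with Ca2+, pH 7.2; schedule: 5 min incubation before reading; benchmarks: neutral control DMSO, positive control TFP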
ERp5 inh = ERp5 (human) disulfide isomerase inhibition; ERp5 insulin aggregation, absorbance 650 nm, 90 min; inhibition, % at 9.99 µM; 0.05% of 350,000 active;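 active = mean replicate inhibition above about 25%, with every replicate also reaching it, limit read from the data, passing the limit was not always enough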
FGF22 binding = shifts melting point of recombinant human FGF22 | 1.5% of 340,000 active | recombinant FGF22 thermal shift, SYPRO orange fluorescence; percent of sucrose octasulfate shift, DMSO zero | AID 651658 | activity (Tm shift, normalised), % at 9.99 µM;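 active = mean Tm shift, scaled 0 neutral to 100 positive control, at about 1.3% or above, every replicate too, limit read from the data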
SIRT5 block = inhibitors of human sirtuin-5 desuccinylase; Q9NXA8; Purified SirT5, succinyl-peptide AMC, trypsin-coupled fluorescence; inhibition, % at 15 µM; 1.1% of 330,000 active; AID 652115; in the data active = inhibition above about 15%
PDI inh = inhibitors of human protein disulfide isomerase. P07237. PDI insulin aggregation turbidity, A650, 90 min. inhibition, % at 10 µM. 0.052% of 350,000 active;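 active = mean inhibition across replicates of 30% or more, whatever share of single replicates reach that level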
Yeast UUG start-2 = alters UUG start codon use in yeast; shares compounds with Yeast UUG start-1; S. cerevisiae UUG-start firefly luciferase, luminescence, 4 h; 100% means double the DMSO signal; activation, % at 38 µM; 540 tested, under 10 active;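 active = signal increase whose fitted curve reaches an absolute level of 40 at a concentration under 10 µM; inactive = activity opposite to the expected increase, or the rest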
The depositor's hits bear a star.

For COc1ccc(C(=O)NCc2nnc(SCC(=O)NC3CCCCC3)n2C)cc1 the results were Yeast UUG start-1 348.9*, S100A4 MyoIIA 8.1, ERp5 inh -1.2, FGF22 binding 0.5, SIRT5 block -2.9, PDI inh 10.0 and Yeast UUG start-2 -5.9.
C[C@@H](NC(=O)C[C@@H]1C[C@@H]2c3cc(NS(C)(=O)=O)ccc3O[C@@H]2[C@@H](CO)O1)c1ccccc1 was read as Yeast UUG start-1 31.8, S100A4 MyoIIA 24.4, ERp5 inh -2.4, FGF22 binding 0.4 and SIRT5 block -1.7.
Screening COc1ccc(CCNS(=O)(=O)c2ccc3c(c2)CCCC3)cc1OC returned Yeast UUG start-1 -4.6, S100A4 MyoIIA -7.1, ERp5 inh 0.9, FGF22 binding 0.0, SIRT5 block -4.0 and PDI inh 6.5.
COc1ccc(CCNS(=O)(=O)c2cccc(F)c2)cc1OC was read as Yeast UUG start-1 0.1, PDI inh -3.4 and Yeast UUG start-2 1.0.
For COc1ccc(CCNS(=O)(=O)c2cccc(C)c2)cc1OC the results were Yeast UUG start-1 -7.1, PDI inh -2.4 and Yeast UUG start-2 8.5.
For COc1ccc(CCNS(=O)(=O)c2ccc3c(c2)OCCO3)cc1OC the results were PDI inh 2.2 and Yeast UUG start-2 -3.1.
For COc1ccc(S(=O)(=O)NCCc2ccc(OC)c(OC)c2)cc1Cl the results were Yeast UUG start-2 inactive.
`N#C[C@H]1[C@@H](c2ccccc2C2=CCCC2)[C@@H](CO)N1C(=O)NC1CCCC1` gave S100A4 MyoIIA 1.9, ERp5 inh -3.3 and SIRT5 block 1.9.
C[C@@H]1CN([C@@H](C)CO)C(=O)c2cc(C#CCN(C)C)cnc2O[C@H]1CN(C)C(=O)c1cccc(F)c1 was read as Yeast UUG start-1 5.3, S100A4 MyoIIA -4.2, ERp5 inh -4.7, FGF22 binding 0.3 and SIRT5 block -3.9.
`COc1ccc(CCNS(=O)(=O)c2ccc(Br)cc2)cc1` gave Yeast UUG start-1 -10.7, S100A4 MyoIIA 0.7, ERp5 inh 1.8, FGF22 binding -0.4, SIRT5 block -2.7 and PDI inh 0.3.
Screening COc1ccc(S(=O)(=O)NCCc2ccccc2)cc1 returned Yeast UUG start-1 10.2, PDI inh -0.3 and Yeast UUG start-2 -0.2.
Screening O=C(Nc1ccc(Nc2ccccc2)cc1)c1ccco1 returned Yeast UUG start-1 610.4*, PDI inh -8.0 and Yeast UUG start-2 -14.4.
For CCOC(=O)CNC(=O)c1nn(-c2ccc(OCC)cc2)c(=O)c2ccccc12 the results were Yeast UUG start-1 119.1*, PDI inh 6.8 and Yeast UUG start-2 -8.8.
`COc1ccc(-n2nc(C(=O)NCC(=O)O)c3ccccc3c2=O)cc1` gave Yeast UUG start-1 -14.3, S100A4 MyoIIA -1.8, ERp5 inh 2.2, FGF22 binding -0.5, SIRT5 block -0.4 and PDI inh -3.8.
`Nc1c(-c2ccccc2)nc(Cl)nc1-c1ccccc1` gave Yeast UUG start-1 133.0*, PDI inh 0.2 and Yeast UUG start-2 1.3.

The closing 2 records of the section above are carried over, then new ones follow.
`COc1ccc(-n2nc(C(=O)NCC(=O)O)c3ccccc3c2=O)cc1` gave Yeast UUG start-1 -14.3, S100A4 MyoIIA -1.8, ERp5 inh 2.2, FGF22 binding -0.5, SIRT5 block -0.4 and PDI inh -3.8.
`Nc1c(-c2ccccc2)nc(Cl)nc1-c1ccccc1` gave Yeast UUG start-1 133.0*, PDI inh 0.2 and Yeast UUG start-2 1.3.
Cc1sc(N)nc1-c1ccccc1 was read as Yeast UUG start-1 -14.5, S100A4 MyoIIA 16.6, ERp5 inh 1.1, FGF22 binding 0.0, SIRT5 block -4.5 and PDI inh 6.8.
C/C=C/c1ccc2c(c1)O[C@@H](CN(C)CCC)[C@@H](C)CN([C@H](C)CO)S2(=O)=O was read as Yeast UUG start-1 85.3*, S100A4 MyoIIA -7.9, ERp5 inh 5.6, FGF22 binding -0.1, SIRT5 block -2.0 and Yeast UUG start-2 inactive.
C/C=C/c1ccc2c(c1)O[C@H](CN(C)C(=O)C1CCCCC1)[C@H](C)CN([C@H](C)CO)S2(=O)=O was read as Yeast UUG start-1 200.9*, S100A4 MyoIIA -0.5, ERp5 inh -0.6, FGF22 binding 0.0, SIRT5 block -0.5 and Yeast UUG start-2 inactive.
`C/C=C/c1ccc2c(c1)O[C@H](CN(C)Cc1ccc(C(=O)O)cc1)[C@H](C)CN([C@H](C)CO)S2(=O)=O` gave Yeast UUG start-1 192.1*, S100A4 MyoIIA 15.3, ERp5 inh -2.6, FGF22 binding 0.5, SIRT5 block 0.6 and Yeast UUG start-2 inactive.
